# Test results taken from PubChem BioAssay (NCI).
# Only a part is listed here, and it is no random draw. The source holds several records for some structures; these can differ, active in one and inactive in another. Activity calls are given as the source filed them. No stated cut-off is given here; in the data, active means growth inhibition above about 70%; inactive means the rest.
# Key:
# [1] = NCI Yeast Anticancer Drug Screen. Data for the rad50 strain (AID 155);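 further: 0% = growth of vehicle-only cultures of the same strain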; conditions: S. cerevisiae rad50 strain growth inhibition, hits give high values
# [2] = NCI Yeast Anticancer Drug Screen. Data for the mec2-1 strain (AID 157); conditions: S. cerevisiae mec2-1 strain, hits give high values
# [3] = NCI Yeast Anticancer Drug Screen. Data for the sgs1 mgt1 strain (AID 161);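 further: 0% = growth of cultures given vehicle only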; conditions: S. cerevisiae sgs1 mgt1 strain, hits give high values
# [4] = NCI Yeast Anticancer Drug Screen. Data for the cln2 rad14 strain (AID 165);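 further: 0% = growth equal to vehicle treated cultures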; conditions: S. cerevisiae cln2 rad14 strain, hits give high values
# [5] = NCI Yeast Anticancer Drug Screen. Data for the bub3 strain (AID 167); conditions: S. cerevisiae bub3 mutant strain, hits give high values
# [6] = NCI Yeast Anticancer Drug Screen. Data for the mlh1 rad18 strain (AID 175); conditions: S. cerevisiae mlh1 rad18 strain growth inhibition, hits give high values
# [7] = at 5.0 µM (retest, dose inferred, filed as 0.5)
# [8] = at 50.0 µM (retest, dose inferred, filed as 5.0)
smiles,measurement,setting,value
[N-]=[N+]=Nc1ccccc1[N+](=O)[O-],growth inhibition,[1]; [7],inactive: 63%
same,growth inhibition,[1]; [8],active: 99%
same,growth inhibition,[1]; at 50.0 µM,active: 99%
same,growth inhibition,[2]; [7],inactive: 36%
same,growth inhibition,[2]; [8],active: 99%
same,growth inhibition,[2]; at 50.0 µM,inactive: 55.8%
same,growth inhibition,[3]; [7],inactive: 50%
same,growth inhibition,[3]; [8],active: 99%
same,growth inhibition,[3]; at 50.0 µM,inactive: 49.6%
same,growth inhibition,[4]; [7],inactive: 31%
same,growth inhibition,[4]; [8],active: 100%
same,growth inhibition,[4]; at 50.0 µM,active: 98.3%
same,growth inhibition,[5]; [7],inactive: 51%
same,growth inhibition,[5]; [8],active: 99%
same,growth inhibition,[5]; at 50.0 µM,active: 98.8%
same,growth inhibition,[6]; [7],active: 72%
same,growth inhibition,[6]; [8],active: 99%
same,growth inhibition,[6]; at 50.0 µM,inactive: 52.6%
C[As](=O)(O)O,growth inhibition,[1]; [7],inactive: -3%
same,growth inhibition,[1]; [8],inactive: 6%
same,growth inhibition,[1]; at 50.0 µM,inactive: 35.5%
same,growth inhibition,[2]; [7],inactive: -2%
same,growth inhibition,[2]; [8],inactive: 3%
same,growth inhibition,[2]; at 50.0 µM,inactive: 6.1%
same,growth inhibition,[3]; [7],inactive: 6%
same,growth inhibition,[3]; [8],inactive: 1%
same,growth inhibition,[3]; at 50.0 µM,inactive: -9.55%
same,growth inhibition,[4]; [7],inactive: -5%
same,growth inhibition,[4]; [8],inactive: -1%
same,growth inhibition,[4]; at 50.0 µM,inactive: 55.1%
same,growth inhibition,[5]; [7],inactive: -8%
same,growth inhibition,[5]; [8],inactive: -2%
same,growth inhibition,[5]; at 50.0 µM,inactive: 22.8%
same,growth inhibition,[6]; [7],inactive: -6%
same,growth inhibition,[6]; [8],inactive: 7%
same,growth inhibition,[6]; at 50.0 µM,inactive: -2.8%
COC(CCOP(N)(=O)N(CCCl)CCCl)OC (stereo unspecified),growth inhibition,[1]; [7],inactive: 1%
same,growth inhibition,[1]; [8],inactive: 51%
same,growth inhibition,[1]; at 50.0 µM,inactive: -2.65%
same,growth inhibition,[2]; [7],inactive: 2%
same,growth inhibition,[2]; [8],inactive: 20%
same,growth inhibition,[2]; at 50.0 µM,inactive: 11.9%
same,growth inhibition,[3]; [7],inactive: 0%
same,growth inhibition,[3]; [8],inactive: 16%
same,growth inhibition,[3]; at 50.0 µM,inactive: -1.8%
same,growth inhibition,[4]; [7],inactive: 0%
same,growth inhibition,[4]; [8],inactive: 38%
same,growth inhibition,[4]; at 50.0 µM,inactive: 45.4%
same,growth inhibition,[5]; [7],inactive: -5%
same,growth inhibition,[5]; [8],inactive: 8%
same,growth inhibition,[5]; at 50.0 µM,inactive: 10.5%
same,growth inhibition,[6]; [7],inactive: -4%
same,growth inhibition,[6]; [8],inactive: 2%
same,growth inhibition,[6]; at 50.0 µM,inactive: 19.8%
O=C(Nc1cccc2ccccc12)N(CCBr)CCBr,growth inhibition,[1]; [7],inactive: 2%
same,growth inhibition,[1]; [8],active: 73%
same,growth inhibition,[1]; at 50.0 µM,active: 89.1%
same,growth inhibition,[2]; [7],inactive: 2%
same,growth inhibition,[2]; [8],active: 73%
same,growth inhibition,[2]; at 50.0 µM,inactive: 28.1%
same,growth inhibition,[3]; [7],inactive: 14%
same,growth inhibition,[3]; [8],active: 75%
same,growth inhibition,[3]; at 50.0 µM,active: 87.8%
same,growth inhibition,[4]; [7],inactive: 1%
same,growth inhibition,[4]; [8],inactive: 20%
same,growth inhibition,[4]; at 50.0 µM,inactive: 40.5%
same,growth inhibition,[5]; [7],inactive: -9%
same,growth inhibition,[5]; [8],inactive: 23%
same,growth inhibition,[5]; at 50.0 µM,inactive: 12%
same,growth inhibition,[6]; [7],inactive: 36%
same,growth inhibition,[6]; [8],active: 95%
same,growth inhibition,[6]; at 50.0 µM,inactive: 59.6%
O=[N+]([O-])c1cc([N+](=O)[O-])c2nsnc2c1,growth inhibition,[1]; at 1.2 µM,inactive: 18%
same,growth inhibition,[1]; at 3.7 µM,active: 71%
same,growth inhibition,[1]; [7],inactive: 69%
same,growth inhibition,[1]; at 11.0 µM,active: 99%
same,growth inhibition,[1]; at 33.0 µM,active: 99%
same,growth inhibition,[1]; [8],active: 98%
same,growth inhibition,[1]; at 50.0 µM,active: 99.6%
same,growth inhibition,[1]; at 100.0 µM,active: 99%
same,growth inhibition,[2]; at 1.2 µM,inactive: -1%
same,growth inhibition,[2]; at 3.7 µM,inactive: 15%
same,growth inhibition,[2]; [7],inactive: -2%
same,growth inhibition,[2]; at 11.0 µM,active: 100%
same,growth inhibition,[2]; at 33.0 µM,active: 100%
same,growth inhibition,[2]; [8],active: 99%
same,growth inhibition,[2]; at 50.0 µM,active: 99.5%
same,growth inhibition,[2]; at 100.0 µM,active: 99%
same,growth inhibition,[3]; [7],inactive: -19%
same,growth inhibition,[3]; [8],active: 99%
same,growth inhibition,[3]; at 50.0 µM,active: 99.2%
same,growth inhibition,[4]; [7],inactive: -20%
same,growth inhibition,[4]; [8],active: 99%
same,growth inhibition,[4]; at 50.0 µM,active: 99.3%
same,growth inhibition,[5]; at 1.2 µM,inactive: 5%
same,growth inhibition,[5]; at 3.7 µM,inactive: 52%
same,growth inhibition,[5]; [7],inactive: 5%
same,growth inhibition,[5]; at 11.0 µM,active: 99%
same,growth inhibition,[5]; at 33.0 µM,active: 99%
same,growth inhibition,[5]; [8],active: 98%
same,growth inhibition,[5]; at 50.0 µM,active: 99.2%
same,growth inhibition,[5]; at 100.0 µM,active: 98%
same,growth inhibition,[6]; [7],inactive: 2%
same,growth inhibition,[6]; [8],active: 98%
same,growth inhibition,[6]; at 50.0 µM,active: 99.1%
O=C1OC(C(Cl)(Cl)Cl)Sc2ccccc21 (stereo unspecified),growth inhibition,[1]; at 1.2 µM,inactive: 1%
same,growth inhibition,[1]; at 3.7 µM,inactive: 7%
same,growth inhibition,[1]; [7],inactive: 14%
same,growth inhibition,[1]; at 11.0 µM,inactive: 17%
same,growth inhibition,[1]; at 33.0 µM,inactive: 48%
same,growth inhibition,[1]; [8],inactive: 20%
same,growth inhibition,[1]; at 50.0 µM,active: 95.7%
same,growth inhibition,[1]; at 100.0 µM,inactive: 69%
same,growth inhibition,[2]; at 1.2 µM,inactive: -3%
same,growth inhibition,[2]; at 3.7 µM,inactive: -2%
same,growth inhibition,[2]; [7],inactive: -1%
same,growth inhibition,[2]; at 11.0 µM,inactive: 2%
same,growth inhibition,[2]; at 33.0 µM,inactive: 22%
same,growth inhibition,[2]; [8],inactive: 12%
same,growth inhibition,[2]; at 50.0 µM,active: 97%
same,growth inhibition,[2]; at 100.0 µM,inactive: 41%
same,growth inhibition,[3]; [7],inactive: 2%
same,growth inhibition,[3]; [8],inactive: 6%
same,growth inhibition,[3]; at 50.0 µM,active: 99%
same,growth inhibition,[4]; [7],inactive: 1%
same,growth inhibition,[4]; [8],inactive: 7%
same,growth inhibition,[4]; at 50.0 µM,inactive: 42.8%
same,growth inhibition,[5]; at 1.2 µM,inactive: -6%
same,growth inhibition,[5]; at 3.7 µM,inactive: -5%
same,growth inhibition,[5]; [7],inactive: -2%
same,growth inhibition,[5]; at 11.0 µM,inactive: -5%
same,growth inhibition,[5]; at 33.0 µM,inactive: 7%
same,growth inhibition,[5]; [8],inactive: 7%
same,growth inhibition,[5]; at 50.0 µM,active: 95%
same,growth inhibition,[5]; at 100.0 µM,inactive: 33%
same,growth inhibition,[6]; [7],inactive: -3%
same,growth inhibition,[6]; [8],inactive: 16%
same,growth inhibition,[6]; at 50.0 µM,active: 98.6%
FC1(F)SC2C(C1(F)F)C1(Cl)C(Cl)=C(Cl)C2(Cl)C1(Cl)Cl (stereo unspecified),growth inhibition,[1]; at 1.2 µM,inactive: 13%
same,growth inhibition,[1]; at 3.7 µM,active: 86%
same,growth inhibition,[1]; [7],inactive: 66%
same,growth inhibition,[1]; at 11.0 µM,active: 98%
same,growth inhibition,[1]; at 33.0 µM,active: 98%
same,growth inhibition,[1]; [8],active: 99%
same,growth inhibition,[1]; at 50.0 µM,active: 98.7%
same,growth inhibition,[1]; at 100.0 µM,active: 98%
same,growth inhibition,[2]; at 1.2 µM,inactive: 13%
same,growth inhibition,[2]; at 3.7 µM,active: 90%
same,growth inhibition,[2]; [7],inactive: 47%
same,growth inhibition,[2]; at 11.0 µM,active: 99%
same,growth inhibition,[2]; at 33.0 µM,active: 98%
same,growth inhibition,[2]; [8],active: 99%
same,growth inhibition,[2]; at 50.0 µM,active: 99.1%
same,growth inhibition,[2]; at 100.0 µM,active: 98%
same,growth inhibition,[3]; [7],inactive: 40%
same,growth inhibition,[3]; [8],active: 99%
same,growth inhibition,[3]; at 50.0 µM,active: 99.2%
same,growth inhibition,[4]; [7],active: 88%
same,growth inhibition,[4]; [8],active: 99%
same,growth inhibition,[4]; at 50.0 µM,active: 99%
same,growth inhibition,[5]; at 1.2 µM,inactive: 9%
same,growth inhibition,[5]; at 3.7 µM,active: 85%
same,growth inhibition,[5]; [7],inactive: 7%
same,growth inhibition,[5]; at 11.0 µM,active: 99%
same,growth inhibition,[5]; at 33.0 µM,active: 98%
same,growth inhibition,[5]; [8],active: 99%
same,growth inhibition,[5]; at 50.0 µM,active: 98.8%
same,growth inhibition,[5]; at 100.0 µM,active: 98%
same,growth inhibition,[6]; [7],active: 70%
same,growth inhibition,[6]; [8],active: 99%
same,growth inhibition,[6]; at 50.0 µM,active: 99%
